The values below come from PubChem BioAssay AID588590 (National Center for Advancing Translational Sciences (NCATS), 2011).

Protein sequences, listed by entry. Tags and fused reporters are not part of them.
UniProt Q9UNA4, whole entry: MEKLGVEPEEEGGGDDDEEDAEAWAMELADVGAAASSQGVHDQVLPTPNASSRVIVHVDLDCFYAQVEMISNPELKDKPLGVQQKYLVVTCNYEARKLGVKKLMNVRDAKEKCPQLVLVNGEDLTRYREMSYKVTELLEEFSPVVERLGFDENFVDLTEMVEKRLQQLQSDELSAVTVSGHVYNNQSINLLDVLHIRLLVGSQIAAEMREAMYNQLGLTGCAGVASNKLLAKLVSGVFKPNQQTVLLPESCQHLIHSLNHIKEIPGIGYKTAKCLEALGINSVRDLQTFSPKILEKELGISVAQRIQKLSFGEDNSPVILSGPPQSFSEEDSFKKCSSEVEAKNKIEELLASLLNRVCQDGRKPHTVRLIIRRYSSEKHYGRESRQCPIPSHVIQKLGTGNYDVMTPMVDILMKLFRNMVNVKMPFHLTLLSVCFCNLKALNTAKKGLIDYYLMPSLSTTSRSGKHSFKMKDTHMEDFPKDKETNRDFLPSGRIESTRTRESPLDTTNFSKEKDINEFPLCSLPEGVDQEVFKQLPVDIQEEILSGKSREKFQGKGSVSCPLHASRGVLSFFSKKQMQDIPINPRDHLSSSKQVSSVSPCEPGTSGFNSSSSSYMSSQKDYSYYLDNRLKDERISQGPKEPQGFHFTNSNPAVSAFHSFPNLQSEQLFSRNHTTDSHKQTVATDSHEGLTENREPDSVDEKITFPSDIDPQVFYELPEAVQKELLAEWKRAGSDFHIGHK

Structures are written as SMILES. “And” between values parts separate entries of the source, which are not always exact repeats. Equal entries are not always repeated. Only a part is listed here, and it is no random draw. Some results for these compounds are left out of this collection, so the calls shown say nothing about other tests. Inconclusive results are not listed. The source made the active and inactive calls. Calls follow the shape of the dose curve; as a rule, active = well fitted inhibition curve with a large enough effect; inconclusive = small, poorly fitted or top-dose-only effect, or another doubt; inactive = no such curve, though single readings can be large or run the other way.

The target in this assay is DNA polymerase iota (Homo sapiens) (UniProt Q9UNA4). Description: qHTS for Inhibitors of Polymerase Iota. The settings on record: Pol iota fluorescent replication assay, 10 min; at 115 µM (top of the series).
As for `CN(C)C1(CNC(=O)c2ccc(Br)cc2)CCCCC1`, the activity, negative = inhibition was inactive: -22.7%. As for `COc1cc(C(=O)NCC2(N(C)C)CCCCC2)c([N+](=O)[O-])cc1OC`, the activity, negative = inhibition is inactive: -28.6%. With `COc1ccc(C(=O)NCC2(N(C)C)CCCCC2)cc1Cl`, the activity, negative = inhibition is inactive: 18%. On to `COc1ccc(Cl)cc1C(=O)NCC1(N(C)C)CCCCC1`, for which the activity, negative = inhibition was inactive: 162%. On to `COc1cccc(C(=O)NCC2(N3CCCCC3)CCCCC2)c1`, for which the activity, negative = inhibition was inactive: 79%. `O=C(NCC1(N2CCCCC2)CCCCC1)c1cccc(Cl)c1`: the activity, negative = inhibition is inactive: 11.2%. With `O=C(OC1CN2CCC1CC2)C(CO)(c1ccccc1)c1ccccc1` (centres undefined), the activity, negative = inhibition was inactive: -2.73%.

`COc1cccc(C(=O)NCC2(N3CCOCC3)CCCCC2)c1`: the activity, negative = inhibition is inactive: 6.87%.

As for `CC(C)COc1ccc(C(=O)NCC2(N(C)C)CCCCC2)cc1`, the activity, negative = inhibition is inactive: 21.1%. Take `COc1ccc(Br)c(C(=O)NCC2(N3CCCCC3)CCCCC2)c1`: the activity, negative = inhibition was inactive: 0.779%. With `COc1cc(C(=O)NCC2(N(C)C)CCCCC2)cc(OC)c1OC`, the activity, negative = inhibition was inactive: 23.8%. Turning to `Cc1cccc(C(=O)NCC2(N(C)C)CCCCC2)c1`, the activity, negative = inhibition is inactive: 42.5%. As for `CN(C)c1cccc(C(=O)NCC2(N(C)C)CCCCC2)c1`, the activity, negative = inhibition is inactive: 11.7%. Regarding `O=C(OCCN1CCCC1)C(O)(c1ccccc1)c1ccccc1`, the activity, negative = inhibition was inactive: 94.7%.

Consider `CC(C)Oc1ccc(C(=O)NCC2(N(C)C)CCCCC2)cc1`, for which the activity, negative = inhibition was inactive: 25.1% and inactive: 141%. In the case of `O=C(NCC1(N2CCCCC2)CCCCC1)c1cc([N+](=O)[O-])ccc1Cl`, the activity, negative = inhibition is inactive: 24.6%. Turning to `CN1[C@@H]2CC[C@H]1CC(OC(=O)C(O)(c1ccccc1)c1ccccc1)C2` (some centres undefined), the activity, negative = inhibition was inactive: 15.9%.

Take `CC(C)N1C(=O)CC2(CCN(CCOC(=O)C(O)(c3ccccc3)c3ccccc3)CC2)C1=O`: the activity, negative = inhibition is inactive: 12.4%. Regarding `COc1cc(SC)ccc1C(=O)NCC1(N(C)C)CCCCC1`, the activity, negative = inhibition is inactive: -17.2%. Consider `CN(C)C1(CNC(=O)c2cccc(Cl)c2)CCCCC1`, for which the activity, negative = inhibition was inactive: 34.1%.

For the compound `CCN(CC)CC(C)C(C)OC(=O)C(O)(c1ccccc1)c1ccccc1` (centres undefined), the activity, negative = inhibition was inactive: 37.3%. Consider `CN(C)C1(CNC(=O)c2ccccc2F)CCCCC1`, for which the activity, negative = inhibition was inactive: 25.3%. Regarding `CN(C)c1ccc(C(=O)NCC2(N(C)C)CCCCC2)cc1`, the activity, negative = inhibition is inactive: 156%. For `CN(C)C1CCCC1OC(=O)C(O)(c1ccccc1)c1ccccc1` (centres undefined) the value was inactive: -7.16%. For the compound `Cc1ccccc1C(=O)NCC1(N2CCCCC2)CCCCC1`, the activity, negative = inhibition was inactive: 12.5%. As for `CN(C)C1(CNC(=O)c2ccccc2[N+](=O)[O-])CCCCC1`, the activity, negative = inhibition was inactive: 37.6%.

Turning to `CCCCOc1ccccc1C(=O)NCC1(N(C)C)CCCCC1`, the activity, negative = inhibition was inactive: 1.35%. Next, `O=C(NCC1(N2CCCCC2)CCCCC1)c1cc(F)c(F)cc1Cl`: inactive: 180%. For `C=CCN1CCN(CCOC(=O)C(O)(c2ccccc2)c2ccccc2)CC1` the value was inactive: -20.7%; for `O=C(NCC1(N2CCCCC2)CCCCC1)c1cccc(Br)c1`, inactive: 29.5%. `CCN1CCCC(OC(=O)C2(O)c3ccccc3C=Cc3ccccc32)C1` (centres undefined): the activity, negative = inhibition is inactive: 2.06%. Regarding `Cc1cc(C(=O)NCC2(N3CCCCC3)CCCCC2)ccc1[N+](=O)[O-]`, the activity, negative = inhibition is inactive: 51.7%. For `CCOc1cccc(C(=O)NCC2(N(C)C)CCCCC2)c1`, the activity, negative = inhibition was inactive: 12.1%. For `COc1ccc(C(=O)NCC2(N(C)C)CCCCC2)cc1`, the activity, negative = inhibition was inactive: 18.2%.
